ChEMBL document CHEMBL5113525, “Discovery of the Novel 1H-Pyrrolo[2,3-b]pyridine Derivative as a Potent Type II CDK8 Inhibitor against Colorectal Cancer” (J Med Chem, 2022)

By UniProt entry, the sequences of proteins in these tests, tags left out. Where a name states a change or a piece, a line headed by the entry shows the natural chain unless it says otherwise.
UniProt P49336: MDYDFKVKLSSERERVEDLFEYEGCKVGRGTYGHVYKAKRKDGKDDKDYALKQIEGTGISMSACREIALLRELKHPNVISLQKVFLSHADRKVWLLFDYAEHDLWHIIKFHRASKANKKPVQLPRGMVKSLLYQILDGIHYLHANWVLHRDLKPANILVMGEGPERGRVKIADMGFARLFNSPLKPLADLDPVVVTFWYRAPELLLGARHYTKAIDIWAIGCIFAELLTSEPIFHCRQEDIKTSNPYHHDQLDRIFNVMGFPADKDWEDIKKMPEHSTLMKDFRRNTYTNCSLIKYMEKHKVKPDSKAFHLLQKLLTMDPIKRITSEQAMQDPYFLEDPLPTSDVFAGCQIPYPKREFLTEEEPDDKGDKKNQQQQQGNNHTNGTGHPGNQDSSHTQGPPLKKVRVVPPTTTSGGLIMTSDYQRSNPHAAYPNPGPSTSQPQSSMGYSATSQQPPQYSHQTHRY

Molecular target: Cyclin-dependent kinase 8 (Homo sapiens, UniProt P49336)
Assay: Inhibition of CDK8 (unknown origin) at 200 nM incubated in presence of ATP by ADP-Glo kinase assay relative to control

inhibition: 75.6%
Compound: Cc1c(Br)c(Br)c2c3c1nc(N1CCNCC1)n3CCC2 [SEL-120]
